## Measured affinities in a library of Ab-95 light chain variants

Source: Engelhart et al. 2022 (doi:10.1038/s41597-022-01779-4), MIT Lincoln Laboratory and A-Alpha Bio; data file from the FLAb repository.

Binding partner: SARS-CoV-2 spike HR2 peptide, sequence PDVDLGDISGINAS.

Parent: Ab-95, a human scFv built as VH, the linker GGGGSGGGGSGGGGS, VL. Only the CDRs of the light chain vary.
VH: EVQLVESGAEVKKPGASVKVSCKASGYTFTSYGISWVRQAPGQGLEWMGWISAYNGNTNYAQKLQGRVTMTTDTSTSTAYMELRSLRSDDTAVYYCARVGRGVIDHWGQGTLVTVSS
VL: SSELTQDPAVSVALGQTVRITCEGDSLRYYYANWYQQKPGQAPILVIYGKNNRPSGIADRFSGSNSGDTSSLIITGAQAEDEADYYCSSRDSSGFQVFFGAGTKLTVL

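The starting antibody came from a phage panning campaign against this peptide. AAYL52 was designed without a model: most single CDR substitutions and a random sample of double and triple ones. The scFvs were displayed on barcoded MATa yeast, the peptide on MATalpha yeast. The frequency of each diploid, read from paired DNA barcodes, reflects how well the two displayed proteins bind. Scores were corrected for input abundance and mapped to Kd with protein pairs of known affinity run in the same pool. Each pool was mated in three replicate cultures.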

Substitutions are numbered in sequence along the VL above, starting at 1 (not Kabat). The read-out is the apparent dissociation constant on a log10 scale (nM): the lower, the stronger. A mean of the replicates is given; it leaves out those without a signal. "nd" means that the variant was in the library but no mating with the target was seen in any replicate; the authors take this as a sign of poor binding, and no number exists. As a blank, each scFv also met three strains without target: over library AAYL52, 28% of these pairings were detected, typically at 3.91 and seldom below 2.90. Parent in this assay: reference entry 2.31, copy in this library 2.25.

changes	log10 Kd (nM), mean	detected
S26W/L27V/F98A	2.86	3/3
D25L/P54Q/F95V	4.16	2/3
Y30F/N33M/G94E	3.48	2/3
S26F/F98C	2.43	3/3
N52I/G94K/V97C	nd	0/3
Y30L/R53P/F98K	nd	0/3
Y31E/N33M/G94L	3.69	3/3
Y30N/P54R/F95V	1.00	3/3
N51H/R53F/V97L	nd	0/3
L27I/Y31F/G94V	nd	0/3
N33L/S55W/D91A	4.22	2/3
K50H/N51A/S55N	2.69	3/3
N33L/Q96T/F98V	4.24	2/3
G24W/R53W/S89V	3.89	3/3
Y30E/S92V/F98C	2.57	3/3
L27Y/R28Q/Q96P	3.87	3/3
G24R/L27W/S88C	3.58	3/3
N51S/S55E/G94Q	nd	0/3
R28E/P54N/Q96Y	2.60	3/3
N33L/G49S/F95A	5.41	1/3
L27S/R28Y	3.28	3/3
A32R/N52A/Q96R	3.39	3/3
S88W/F95I	2.87	1/3
L27R/K50C/D91T	3.60	3/3
L27M/R28D/K50N	2.25	3/3
G24L/Y31I	2.80	3/3
E23A/S26D/N52F	2.39	3/3
E23P/Y31H/S89T	2.54	3/3
E23W/S55F/S92A	3.55	3/3
Y31Q/N51R/V97D	3.05	2/3
Y31A/N52T/R90T	0.55	3/3
Y31R/F95H/V97K	3.33	2/3
D25R/Y29K/R90K	3.99	2/3
G24M/A32P/D91T	2.73	3/3
S26K/V97K	3.25	3/3
Y29N/Q96H/F98V	1.63	3/3
R28T/F95G/F98P	2.26	3/3
E23S/R90I	3.73	3/3
Y29V/N33P/D91S	2.69	3/3
S26L/N33S/R90G	3.67	2/3
L27W/S89A/S92G	3.27	3/3
D25V/R90M	2.32	3/3
N51V/Q96I	3.66	3/3
L27S/K50P/R53Y	3.99	1/3
R53M/S55F/F98W	3.77	2/3
Y31Q/N52D/S92Q	0.64	3/3
S26V/R28E/S92R	3.33	3/3
L27M/N33A/V97A	4.57	1/3
Y31I/K50W/N51E	3.20	1/3
Y31L/R53W/G94W	4.93	2/3
A32K/P54I	2.64	2/3
L27W/A32T/N52P	nd	0/3
G49E/N51R/R53L	nd	0/3
Y30I/S88D/F95H	3.22	3/3
P54A/S55Y/S88H	nd	0/3

Picked from the list: the 9 lowest averages where every replicate gave a value.

| changes | log10 Kd (nM), mean | detected |
|---|---|---|
| Y31A/N52T/R90T | 0.55 | 3/3 |
| Y31Q/N52D/S92Q | 0.64 | 3/3 |
| Y30N/P54R/F95V | 1.00 | 3/3 |
| Y29N/Q96H/F98V | 1.63 | 3/3 |
| L27M/R28D/K50N | 2.25 | 3/3 |
| R28T/F95G/F98P | 2.26 | 3/3 |
| D25V/R90M | 2.32 | 3/3 |
| E23A/S26D/N52F | 2.39 | 3/3 |
| S26F/F98C | 2.43 | 3/3 |